Literature values in patent US20240245780A1, “PHARMACEUTICAL COMPOSITIONS CONTAINING STABLE AMORPHOUS SOLID SOLUTIONS AND DISPERSIONS” (Eastman Chemical Company, priority 2021, published 2024).

Details: cited from earlier work

SMILES: O=C1CCc2ccc(OCCCCN3CCN(c4cccc(Cl)c4Cl)CC3)cc2N1 [Aripiprazole]
- pKa: 8
